{"source": "patent US7307083B2", "about": "“Tetrahydro-acridine and dithiolane derivatives” (priority 2005, dated 2007)", "test_system": "anti-NGF mice (AD11)", "assay": "Cholinergic deficit of anti-NGF mice: ChAT immunohistochemistry, cholinergic neurones in the basal forebrain", "details": "i.p., 15 days, doses of Table 6"}
{"smiles": "CCN(C)C(=O)Oc1cccc([C@H](C)N(C)C)c1", "note": "[Rivastigmine, reference compound]", "values": [{"measurement": "recovery of the cholinergic deficit (number of cholinergic neurones in the basal forebrain)", "result": "did not allow the complete recovery of the cholinergic deficit"}]}
